# AlphaSeq binding of Ab-95 light chain variants to a spike HR2 peptide

Binding partner: SARS-CoV-2 spike HR2 peptide, sequence PDVDLGDISGINAS.

Parent scFv Ab-95: VH joined to VL by the linker GGGGSGGGGSGGGGS. Changes lie in the light chain CDRs alone.
VH: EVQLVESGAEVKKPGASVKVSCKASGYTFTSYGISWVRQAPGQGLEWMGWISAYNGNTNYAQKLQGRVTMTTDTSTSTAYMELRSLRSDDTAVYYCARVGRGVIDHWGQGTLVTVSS
VL: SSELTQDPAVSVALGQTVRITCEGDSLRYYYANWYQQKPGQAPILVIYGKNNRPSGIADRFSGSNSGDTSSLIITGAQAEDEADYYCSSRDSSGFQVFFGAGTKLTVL

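The starting antibody came from a phage panning campaign against this peptide. Variants in AAYL52 differ from the parent at up to three CDR positions; double and triple changes were sampled at random. Affinity was read by AlphaSeq, a pooled yeast mating assay with surface-displayed partners. Mating (16 h, 30 °C) was followed by selection of diploids and sequencing of their barcodes. The ratio of observed to expected reads was calibrated, replicate by replicate, on BCL2-family standards whose Kd was known from biolayer interferometry. There are three technical replicates.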

Variants are written as CDR1, CDR2 and CDR3 of the light chain (limits as in the source). Parent: EGDSLRYYYAN, GKNNRPS, SSRDSSGFQVF. All variants listed here change F98 of the VL, counted from its first residue. The Kd shown is the geometric mean over detected replicates; a lower Kd is a better binder. An entry "no signal" has no value in the source: the pair was not observed among the diploids in any replicate. This suggests poor binding but is not conclusive. Three control strains display no target. For library AAYL52, 28% of the pairings with them gave a signal, with a median of 8.2 µM and one signal in twenty below 800 nM, so weak values seen in few replicates may be background. The control count says in how many pairings with the empty strains this scFv gave a signal.

EHDSARYYYAN | GKNNRPS | SSRDSSGFQVS: 260 nM (3 of 3 replicates; controls 5 of 9).
EGDSLRYYYAN | GKNNRPS | SSRDSSGFQVT: 620 nM (3 of 3 replicates; controls 2 of 9).
EGDSLRYQYAN | GKNNRPS | SSRDSSIFQVH: 8.3 nM (3 of 3 replicates; controls 3 of 9).
EGDSLRYYYAN | HKNNRPS | SSRDSSNFQVL: no signal (0 of 3 replicates; controls 1 of 9).
EGDSLRYYYAN | GKNNRPS | SSRDSSDFQVV: 1.9 µM (1 of 3 replicates; controls 3 of 9).
EGDSLRYYYAN | GKNNVPS | SSRDSSGFQGL: 880 nM (3 of 3 replicates; controls 2 of 9).
EGGSLRYYYAN | GKNNRMS | SSRDSSGFQVI: 320 nM (2 of 3 replicates; controls 1 of 9).
EGDSLRYYYAN | GKNNRPS | SSRDSSGFQVM: 1.7 µM (3 of 3 replicates; controls 3 of 9).
EGDSLRYYYAN | GKNNRES | SSRDSSGFQYH: 2.8 µM (3 of 3 replicates; controls 5 of 9).
EGDSLRYYYAN | GKNKRPS | SSRDSTGFQVV: 1.3 µM (3 of 3 replicates; controls 4 of 9).
EGDSLRYYTAN | GKNNRPS | SSRDSSGFQVE: 330 nM (1 of 3 replicates; controls 1 of 9).
EGDSLRWYYAN | GKNNRPS | SSRDSSGFQVM: 530 nM (3 of 3 replicates; controls 3 of 9).
EGDSLRYYYAN | DKNNRPS | SSRDSSGFYVH: 2.9 µM (3 of 3 replicates; controls 2 of 9).
EGDSLRYYYAN | GKNNRPS | SSRDSSGFQVI: 410 nM (3 of 3 replicates; controls 4 of 9).
EGDSLRYYYAN | GKNNRPS | SSRDSIYFQVA: no signal (0 of 3 replicates; controls 2 of 9).
EGDSLRYQYAN | GTNNRPS | SSRDSSGFQVC: 68 nM (3 of 3 replicates; controls 1 of 9).
EGDSLRYYYAN | GKNNRPS | MSRDSSGFQVK: 110 nM (3 of 3 replicates; controls 1 of 9).
EGDSLRYYYAN | GKNNRPS | QSRDESGFQVY: 2.1 µM (2 of 3 replicates; controls 0 of 9).
EGDSLRYYRAN | GKNNPPS | SSRDSSGFQVY: 1.3 µM (2 of 3 replicates; controls 2 of 9).
EGDSNRYYYAN | GKNNRPS | SSRDSLGFQVC: 3.1 µM (3 of 3 replicates; controls 1 of 9).
EGDSLKYYYAN | GKNNRPS | SSRDSSGFQKA: 6.8 µM (3 of 3 replicates; controls 2 of 9).
EGDSLRIYYAN | GKNNRPS | SSRDSSQFQVK: no signal (0 of 3 replicates; controls 1 of 9).
EGDSLRYYYAN | GKNNRAS | KSRDSSGFQVM: 18 µM (1 of 3 replicates; controls 3 of 9).
EGDSLRYYYAL | GKNNRPS | SSRDSSGFQWC: 72 µM (1 of 3 replicates; controls 2 of 9).
EGDLLRYYYAN | GKNNRPS | SHRDSSGFQVR: 8.1 µM (1 of 3 replicates; controls 4 of 9).
EGDSLRYYYAN | GKNNRPS | SSVKSSGFQVY: no signal (0 of 3 replicates; controls 2 of 9).
EGDSLRYTYAN | GKNNRPS | SSRVSSGFQVW: 30 µM (2 of 3 replicates; controls 4 of 9).
EGDSLRYYYAN | GKNNRGS | SSRDSSGFQVG: 220 nM (3 of 3 replicates; controls 1 of 9).
EGDNLRYYYAN | GANNRPS | SSRDSSGFQVY: 620 nM (3 of 3 replicates; controls 1 of 9).
EGDDLRYYYAC | GKNNRPS | SSRDSSGFQVR: 400 nM (3 of 3 replicates; controls 3 of 9).
EGDSLRYYYAN | GKNNRPS | DSGDSSGFQVI: 42 µM (1 of 3 replicates; controls 1 of 9).
EKDSLRYYYAN | GKNNRPT | SSRDSSGFQVD: 110 nM (3 of 3 replicates; controls 1 of 9).
EGHSLRYYYAN | GKNNRPS | SSRDGSGFQVI: 290 nM (3 of 3 replicates; controls 1 of 9).
EGDSLRYYYAN | GKNNSPS | SSRDSSGFQSI: 39 µM (3 of 3 replicates; controls 7 of 9).
EGDSLRYYYAN | GKNNRPS | SSRDSGGFQVT: 1.1 µM (3 of 3 replicates; controls 0 of 9).
EGDSLRYYYAN | GSNNRPN | SSRDSSGFQVC: 3.6 µM (3 of 3 replicates; controls 2 of 9).
EGDSLRNYYAN | GLNNRPS | SSRDSSGFQVC: 15 nM (3 of 3 replicates; controls 5 of 9).
EGDSLRYYYAN | GKNNRPS | SSRDSSGFQVK: 1.8 µM (2 of 3 replicates; controls 1 of 9).
EGDSLRYYYAF | GKNNRPS | SSRDSSGFQCS: 9.7 nM (3 of 3 replicates; controls 3 of 9).
EGDSLRYYVAG | GKNNRPS | SSRDSSGFQVR: 3.8 µM (1 of 3 replicates; controls 1 of 9).
EGDSLRYYYWN | GKNNRPS | SSRDRSGFQVN: 2.6 µM (3 of 3 replicates; controls 2 of 9).
EGDSTRYYYAN | GKNNRYS | SSRDSSGFQVK: no signal (0 of 3 replicates; controls 0 of 9).
EGDSLRYYYAN | GKNNRPS | SSRDKSGFQVH: 54 nM (3 of 3 replicates; controls 7 of 9).

Top 3 of the variants detected in all replicates, tightest first:

CDR-L1,CDR-L2,CDR-L3,Kd,detected,signal with controls
EGDSLRYQYAN,GKNNRPS,SSRDSSIFQVH,8.3 nM,3/3,3/9
EGDSLRYYYAF,GKNNRPS,SSRDSSGFQCS,9.7 nM,3/3,3/9
EGDSLRNYYAN,GLNNRPS,SSRDSSGFQVC,15 nM,3/3,5/9

From the AlphaSeq antibody data of Engelhart et al. 2022 (doi:10.1038/s41597-022-01779-4), copy in the FLAb collection.